Molecules are shown by their SMILES. This is a selection; strong and weak results do not stand in their true shares. Active and inactive are the calls of the source.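 Rule for the calls: active = mean inhibition of at least 30% with at least half of replicates also reaching 30%; inconclusive = no clear call, values can overlap the other calls; inactive = the rest.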

In this experiment the target is Golgi-associated PDZ and coiled-coil motif-containing protein (Homo sapiens) (UniProt Q9HD26). Put plainly: untagged CAL PDZ binding inhibitors, primary screen, biochemical, fluorescence polarization, HTS (AID 602252).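 Note: 0% = DMSO neutral control and 100% = excess unlabeled competitor peptide PRC23.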 The following applies: purified CAL PDZ, TMR-peptide fluorescence polarization, 1 h; at 24.9 µM; active compounds read high. In general terms: Fluorescence polarisation rises when a labelled molecule tumbles more slowly, as on binding a larger partner.
The inhibition is the drop in the measured response relative to a control, in per cent. With `O=C(NCC1(N2CCCCC2)CCCCC1)c1cccc(C(F)(F)F)c1`, the inhibition was inactive: -0.286%.

On to `CC(C)c1ccc(C(=O)NCC2(N3CCOCC3)CCCCC2)cc1`, for which the inhibition was inactive: -3.53%.

With `CN1CCN(CCOC(=O)C(O)(c2ccccc2)c2ccccc2)CC1`, the inhibition is inactive: 0.759%.

For `O=C(NCC1(N2CCOCC2)CCCCC1)c1cc(=O)[nH]c2ccccc12`, the inhibition was inactive: -1.39%.

On to `O=C(NCC1(N2CCCCC2)CCCCC1)c1ccc(OC(F)F)cc1`, for which the inhibition is inactive: -1.8%.

For `CSc1ccc(C(=O)NCC2(N3CCOCC3)CCCCC2)cc1`, the inhibition is inactive: -2.56%.

Regarding `O=C(NCC1(N2CCCCC2)CCCCC1)c1cccc([N+](=O)[O-])c1`, the inhibition is inactive: -2.75%.

Consider `CCN1CCC(Nc2ccc(Cl)cc2)CC1`, for which the inhibition was inactive: -3.4%.

Regarding `N#CC1(Nc2ccccc2)CCN(CCc2ccccc2)CC1`, the inhibition is inactive: 0.487%.

For `CCCOc1ccc(C(=O)NCC2(N(C)C)CCCCC2)cc1OC`, the inhibition was inactive: 0.818%.

Consider `COc1ccc(CN(CCCl)CCCl)cc1Cl`, for which the inhibition is inactive: -4.98%.

Regarding `CN(C)c1cccc(C(=O)NCC2(N3CCCCC3)CCCCC2)c1`, the inhibition is inactive: -0.899%.

For the compound `CC(C)c1ccc(NC2CCN(C(=O)OC(C)(C)C)CC2)cc1`, the inhibition was inactive: -2.42%.

As for `COc1cc(OC)c(C(=O)NCC2(N(C)C)CCCCC2)cc1OC`, the inhibition is inactive: -2.5%.

Consider `O=C(NCC1(N2CCOCC2)CCCCC1)c1cc(F)c(F)cc1Cl`, for which the inhibition was inactive: 2.02%.

Take `O=C(NCC1(N2CCOCC2)CCCCC1)c1cc2ccccc2o1`: the inhibition was inactive: -4%.

Turning to `O=C(NCC1(N2CCCCC2)CCCCC1)c1ccc(Cl)nc1`, the inhibition is inactive: -2.72%.

Consider `Cc1cc(C)cc(N(C(=O)c2ccccc2)C2CCN(C(=O)OC(C)(C)C)CC2)c1`, for which the inhibition was inactive: -8.4%.

Take `CCOC(=O)N1CCC(Nc2ccc(OC)cc2)CC1`: the inhibition is inactive: -1.18%.

With `N#CC1(Nc2ccccc2)CCN(Cc2ccccc2)CC1`, the inhibition is inactive: -0.338%.

For the compound `O=C(NCC1(N2CCCCC2)CCCCC1)c1ccc(Cl)s1`, the inhibition was inactive: 0.634%.

Take `O=C(OC1CN2CCC1CC2)C1c2ccccc2Oc2ccccc21` (stereo not drawn): the inhibition was inactive: -2.67%.

In the case of `COc1ccc(Cl)cc1C(=O)NCC1(N2CCOCC2)CCCCC1`, the inhibition is inactive: -6.82%.

In the case of `O=C(NCC1(N2CCCCC2)CCCCC1)c1ccc(=O)[nH]c1`, the inhibition was inactive: -1.57%.

With `O=C(NCC1(N2CCCCC2)CCCCC1)c1cccs1`, the inhibition was inactive: -6.38%.

In the case of `COc1ccc(C(=O)NCC2(N3CCCCC3)CCCCC2)cc1`, the inhibition is inactive: -2.1%.

As to `CC(C)(C)OC(=O)N1CCC(N(C(=O)c2ccccc2)c2ccc(F)cc2)CC1`, the inhibition was inactive: -5.49%.

Consider `CSc1ccccc1C(=O)NCC1(N2CCCCC2)CCCCC1`, for which the inhibition is inactive: -4.47%.

As for `Cc1cccc(NC2(C#N)CCN(Cc3ccccc3)CC2)c1`, the inhibition was inactive: 0.261%.

Regarding `CCOC(=O)N1CCC(Nc2cccc(C)c2)CC1`, the inhibition was inactive: -1.12%.

`COc1cc(C(=O)NCC2(N(C)C)CCCCC2)ccc1OC(F)F`: the inhibition is inactive: -3.94%.

Turning to `CCOc1ccc(C)cc1CN(CCCl)CCCl`, the inhibition is inactive: -2.4%.

Turning to `O=C1CCN(Cc2ccccc2)CC1`, the inhibition is inactive: -1.58%.

With `CCCCOc1ccc(C(=O)NCC2(N3CCOCC3)CCCCC2)cc1`, the inhibition is inactive: -1.69%.

`O=P1(N(CCCl)CCCl)SCCCS1`: the inhibition is inactive: -8.34%.

For `O=C(NCC1(N2CCCCC2)CCCCC1)c1ccc(F)cc1`, the inhibition is inactive: -2.6%.

On to `CCOC(=O)N1CCC(Nc2ccc(F)cc2)CC1`, for which the inhibition was inactive: -4.49%.

On to `COc1ccc(NC2CCN(CCc3ccccc3)CC2)c(OC)c1`, for which the inhibition was inactive: 0.846%.

For `Cc1ccccc1NC1(C#N)CCN(Cc2ccccc2)CC1`, the inhibition was inactive: -4.16%.

For the compound `CCN1CCC(Nc2cccc(F)c2)CC1`, the inhibition was inactive: -3.1%.

For `O=C(NCC1(N2CCCCC2)CCCCC1)c1ccco1`, the inhibition was inactive: -3.63%.

`CN(C)c1ccc(C(=O)NCC2(N3CCCCC3)CCCCC2)cc1`: the inhibition is inactive: -4.09%.

Regarding `Cn1c(=O)[nH]cc(N(CCCl)CCCl)c1=O`, the inhibition is inactive: -0.332%.

Turning to `COc1cc(OC)cc(C(=O)NCC2(N3CCCCC3)CCCCC2)c1`, the inhibition was inactive: -0.907%.

Consider `CC(=O)N(c1ccccc1)C1CCNCC1`, for which the inhibition is inactive: -6.08%.

`Cc1ccc(NC2(C#N)CCN(Cc3ccccc3)CC2)cc1`: the inhibition was inactive: -0.863%.

Regarding `Cc1ccc(C(=O)NCC2(N3CCCCC3)CCCCC2)o1`, the inhibition is inactive: 1.64%.

For `Fc1ccccc1NC1CCN(Cc2ccccc2)CC1`, the inhibition was inactive: 1.45%.

Take `CCC(CO)(C(=O)OC1CN2CCC1CC2)c1ccccc1` (stereo not drawn): the inhibition is inactive: 1.65%.

For `COc1cccc(C(=O)N(c2cc(C)cc(C)c2)C2CCN(C(=O)OC(C)(C)C)CC2)c1`, the inhibition is inactive: -2.21%.

As to `CN1CCC(Nc2ccc(Cl)cc2)CC1`, the inhibition was inactive: 0.235%.

Regarding `CCOc1ncccc1C(=O)NCC1(N2CCOCC2)CCCCC1`, the inhibition was inactive: -8.58%.

Take `CN1CCC(Nc2ccc(F)c(Cl)c2)CC1`: the inhibition is inactive: -1.31%.

Turning to `CCCOc1ccc(C(=O)NCC2(N(C)C)CCCCC2)cc1`, the inhibition was inactive: -10.5%.

Consider `CC(C)(C)OC(=O)N1CCC(Nc2ccccc2)CC1`, for which the inhibition was inactive: -3.35%.

Regarding `O=C(O)C1(Nc2ccccc2)CCN(Cc2ccccc2)CC1`, the inhibition is inactive: -0.153%.

Regarding `N/C(=N\O)c1c(N)no[n+]1[O-]`, the inhibition is inactive: 1.28%.

As to `CCOC(=O)N1CCC(Nc2ccc(C)cc2)CC1`, the inhibition was inactive: -0.338%.

For the compound `O=C(OC1CN2CCC1CC2)C1c2ccccc2C=Cc2ccccc21` (stereo not drawn), the inhibition is inactive: -3.92%.

As to `O=C(NCC1(N2CCOCC2)CCCCC1)c1cc(Br)ccc1Cl`, the inhibition is inactive: -5.53%.

`COc1cc(C(=O)NCC2(N3CCOCC3)CCCCC2)cc(OC)c1C`: the inhibition is inactive: -2.26%.

`COc1ccc(C(=O)NCC2(N3CCOCC3)CCCCC2)cc1OC`: the inhibition was inactive: 2.13%.

Take `c1ccc(CN2CCC(Nc3ccccc3)CC2)cc1`: the inhibition was inactive: -4.81%.

On to `Cc1cc(N(CCCl)CCCl)ccc1C=O`, for which the inhibition is inactive: -0.628%.

For the compound `CCCN1CCC(Nc2cc(OC)cc(OC)c2)CC1`, the inhibition was inactive: -1.84%.

For `CN(C)C1(CNC(=O)c2cccc(C#N)c2)CCCCC1`, the inhibition was inactive: 2.76%.

Consider `CC(C)(C)OC(=O)N1CCC(N(C(=O)c2ccccc2)c2ccc(Cl)cc2)CC1`, for which the inhibition is inactive: -1.54%.

With `N#Cc1ccc(C(=O)NCC2(N3CCCCC3)CCCCC2)cc1`, the inhibition is inactive: -3.76%.

The values are drawn from PubChem BioAssay AID602252 (Broad Institute, 2012).
